Laboratory results: ChEMBL document CHEMBL1124669, “Quaternary salts of 2-[(hydroxyimino)methyl]imidazole. 2. Preparation and in vitro and in vivo evaluation of 1-(alkoxymethyl)-2-[(hydroxyimino)methyl]-3-methylimida zolium halides for reactivation of organophosphorus-inhibited acetylcholinesterases” (1989)

Species: Mus musculus
Test: Compound was tested in mouse for significant protection against the lethal effects of 2xLD50 of soman without atropine

| Structure (SMILES) | LD50 [µmol/kg] |
| --- | --- |
| CCCCOC[n+]1ccn(C)c1/C=N/O.[Cl-] | 705 |

Tested on: Mus musculus
Test: Protective index was expressed as LD50 with oxime/LD50 without oxime

| Structure (SMILES) | PI |
| --- | --- |
| C[n+]1ccccc1/C=N/O.[Cl-] | 2.5 |
| Cn1cc[n+](COCCCc2ccccc2)c1/C=N/O.[Cl-] | 0 |
| COC[n+]1ccn(C)c1/C=N/O.[Cl-] | 3 |

Species: Mus musculus
Test: Tested in mouse for significant protection against the lethal effects of 2xLD50 of soman without atropine.

| Structure (SMILES) | LD50 [µmol/kg] |
| --- | --- |
| CC(OC[n+]1ccn(C)c1/C=N/O)C(C)(C)C.[Cl-] (stereo not given) | 492 |
| CCOC[n+]1ccn(C)c1/C=N/O.[Cl-] | 612 |
| CC(C)OC[n+]1ccn(C)c1/C=N/O.[Cl-] | 417 |
| Cn1cc[n+](COCC2CCCCC2)c1/C=N/O.[Cl-] | 391 |
| CCCCCCOC[n+]1ccn(C)c1/C=N/O.[Cl-] | 288 |
| Cn1cc[n+](COC2CCC2)c1/C=N/O.[Cl-] | 495 |
| Cn1cc[n+](COCCCc2ccccc2)c1/C=N/O.[Cl-] | 585 |
| Cn1cc[n+](COC2CCCCCCCCCCC2)c1/C=N/O.[Cl-] | 161 |
| CCCCCCCCOC[n+]1ccn(C)c1/C=N/O.[Cl-] | 94 |
| Cn1cc[n+](COC(=O)C(C)(C)C)c1/C=N/O.[Cl-] | 372 |
| CCCC(OC[n+]1ccn(C)c1/C=N/O)C1CCCC1.[Cl-] (stereo not given) | 184 |
| CC(CC(C)(C)C)OC[n+]1ccn(C)c1/C=N/O.[Cl-] (stereo not given) | 205 |
| Cn1cc[n+](COC[n+]2ccn(C)c2/C=N/O)c1/C=N/O | 255 |
| CCC(OC[n+]1ccn(C)c1/C=N/O)C(C)(C)C.[Cl-] (stereo not given) | 222 |
| CCC(C)C(C)OC[n+]1ccn(C)c1/C=N/O.[Cl-] (stereo not given) | 167 |
| Cn1c(/C=N/O)[n+](C)c2ccccc21.[Cl-] | 1400 |
| CCC(C)C(=O)OC[n+]1ccn(C)c1/C=N/O.[Cl-] (stereo not given) | 333 |
| Cn1cc[n+](COCC(C)(C)C)c1/C=N/O.[Cl-] | 219 |

| Structure (SMILES) | LD50 [µmol/kg] |
| --- | --- |
| COC[n+]1ccn(C)c1/C=N/O.[Cl-] | 620 |
| Cn1cc[n+](COC2CCCCC2)c1/C=N/O.[Cl-] | 261 |
| Cn1cc[n+](COC2CCCCCC2)c1/C=N/O.[Cl-] | 193 |
| Cn1cc[n+](COC2CCCC2)c1/C=N/O.[Cl-] | 712 |
| CCCC(C)OC[n+]1ccn(C)c1/C=N/O.[Cl-] (stereo not given) | 651 |
| CCCC(CC)OC[n+]1ccn(C)c1/C=N/O.[Cl-] (stereo not given) | 321 |
| Cn1cc[n+](COCC2CC2)c1/C=N/O.[Cl-] | 621 |
| Cn1cc[n+](COCc2cccc3ccccc23)c1/C=N/O.[Cl-] | 43 |
| Cn1cc[n+](COC[n+]2ccccc2/C=N/O)c1/C=N/O.[Cl-].[Cl-] | 342 |
| Cn1cc[n+](COC(=O)c2ccc3ccccc3c2)c1/C=N/O.[Cl-] | 177 |
| O/N=C\c1cccc[n+]1COCCOC[n+]1ccccc1/C=N/O.[Cl-].[Cl-] | 278 |
| Cn1cc[n+](COC2CCCCCCC2)c1/C=N/O.[Cl-] | 631 |
| Cn1cc[n+](CCC[n+]2ccn(C)c2/C=N/O)c1/C=N/O | 124 |
| Cn1cc[n+](CCCC[n+]2ccn(C)c2/C=N/O)c1/C=N/O | 372 |
| CCCC(=O)OC[n+]1ccn(C)c1/C=N/O.[Cl-] | 511 |
| CC(OC[n+]1ccn(C)c1/C=N/O)C1CCCCC1.[Cl-] (stereo not given) | 521 |
| Cn1cc[n+](COCC2CCCc3ccccc32)c1/C=N/O.[Cl-] (stereo not given) | 199 |
| Cn1cc[n+](COCc2ccccc2)c1/C=N/O.[Cl-] | 646 |
